Common to all, as to type: cell-based
In one series the test system is HT29 (colon). As to the kind of experiment: Radiometric growth inhibition of tumor cells, HT29. Conditions: human. From the text: (§1) CELL LINES: Eight different established human cell lines CALU (lung), COLO320 (colon), H578St (breast), HT-29 (colon), MCF-7 (breast), OM-1 (colon), SKLU (lung) and SKMES(lung), and two control cell lines (bone marrow and/or fibroblast cells) were utilized. All cell lines were obtained from the Tumor Cloning Laboratory, Institute for Drug Development, Cancer Therapy and Research Center, San Antonio, Tex. All cell lines grew as monolayers in the appropriate culture medium supplemented with heat-inactivated calf serum. All reagents were obtained from Grand Island Biological Co., Grand Island, N.Y.
(§2) The iv formulations of the compounds of the present invention were prepared with sterile buffered saline and stored at -70° C. until required for testing.
(§3) Following trypsinization, tumor cells were suspended in tissue culture medium and exposed to the antitumor agents continuously at three different concentrations: 10, 1 and 0.1 μg/ml.
(§4) RADIOMETRIC MEASUREMENT OF GROWTH INHIBITION: Growth inhibition was assessed with the BACTEC System 460 (Johnston Laboratories, Towson, Md.) after addition of the antitumor agent to the cell in the respective growth medium containing ^14 C-glucose at a final concentration of 2 μCi/ml.
(§5) Two mls of the tumor cell suspension containing radioactive glucose were seeded into sterile, disposable 15 ml vials by injection through self-sealing rubber-aluminum caps. […]

Another series concerns bone marrow. As to the kind of experiment: In vitro survival of bone marrow control cells (radiometric BACTEC).
Excerpt: as §1, §2, §3, §4, §5

The test system of a further series is OM-1 (colon). As to the kind of experiment: Radiometric growth inhibition of tumor cells, OM-1. Conditions: human, om-1 colon tumor cells.
Excerpt: as §1, §2, §3, §4, §5

The next series concerns SKLU (lung). Kind of series: Radiometric growth inhibition of tumor cells, SKLU. Conditions: human.
Excerpt: as §1, §2, §3, §4, §5

A further series deals with MCF-7 (breast). Kind of series: Radiometric growth inhibition of tumor cells, MCF-7. Conditions: human, mcf-7 breast tumor cells.
Excerpt: as §1, §2, §3, §4, §5

2'-Deoxy-β-L-5-fluorouridine: the “% SURVIVAL TUMOR” value amounted to 81.7% in the series with HT29 (colon), 66.7% in the series with OM-1 (colon), 83.9% in the series on SKLU (lung) and 66.9% with MCF-7 (breast). For the same substance, the “% SURVIVAL BONE MARROW” value with bone marrow amounted to 104%.

For the origin of these results see patent publication US5559101A, “L-ribofuranosyl nucleosides” (priority 1994, dated 1996).
